Ab-14 light chain CDR variants: yeast mating affinities

Binding partner: SARS-CoV-2 spike HR2 peptide, sequence PDVDLGDISGINAS.

The variants keep the heavy chain, the linker and the frameworks of Ab-14 (scFv order VH, a (GGGGS)3 linker, VL).
VH: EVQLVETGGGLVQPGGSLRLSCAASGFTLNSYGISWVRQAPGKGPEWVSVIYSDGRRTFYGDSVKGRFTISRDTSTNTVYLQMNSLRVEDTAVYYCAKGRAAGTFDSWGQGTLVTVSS
VL: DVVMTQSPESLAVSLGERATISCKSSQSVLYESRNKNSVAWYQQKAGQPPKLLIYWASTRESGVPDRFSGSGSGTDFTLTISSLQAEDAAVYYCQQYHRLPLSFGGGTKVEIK

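Library AAYL50 holds single substitutions and randomly drawn double and triple substitutions in the CDRs. In AlphaSeq, yeast of one mating type display the scFv and yeast of the other type display the target. The frequency of each diploid, read from paired DNA barcodes, reflects how well the two displayed proteins bind. Read counts were normalised to the haploid input and turned into Kd by a linear fit to BCL2-family pairs of known affinity, for each replicate. Mating was done three times.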

Changes read parent residue, position, new residue, counted from the first residue of the VL shown.
Each Kd is an estimate from the mating assay, the geometric mean of the replicates in which the pair was seen; lower is stronger.
"not detected" marks a missing value. The strain was present, yet no cells mated with the target were sequenced in any replicate, which points to weak or no binding.
In this assay the parent's reference entry averaged 4.4 nM; its copy inside this library read 48 nM.
Background: pairings of library AAYL50 with three empty control strains gave a value in 18% of cases (median 15 µM, 5th percentile 970 nM). Values in that range, when seen in few replicates, are hard to tell from nonspecific mating. Also given: how often the same scFv was detected with the empty control strains.

| changes | apparent Kd | seen in | signal with controls |
|---|---|---|---|
| Y31L S38F V39G | not detected | 0 of 3 | 0 of 9 |
| N35P E61H L102S | 320 nM | 3 of 3 | 0 of 9 |
| Y97M L100R L102V | 120 µM | 1 of 3 | 2 of 9 |
| S38W L100E | not detected | 0 of 3 | 3 of 9 |
| S33V N37R Y97A | 29 µM | 1 of 3 | 0 of 9 |
| L30I S62R L102N | 48 µM | 1 of 3 | 1 of 9 |
| S28Q A40M R60F | not detected | 0 of 3 | 2 of 9 |
| V29M S38C W56K | 9.1 nM | 3 of 3 | 0 of 9 |
| S26C N35C Q95W | not detected | 0 of 3 | 3 of 9 |
| Q95P Q96A S103V | 28 nM | 3 of 3 | 2 of 9 |
| Q27F A57Q S103N | not detected | 0 of 3 | 0 of 9 |
| Q95V R99K S103M | 110 µM | 1 of 3 | 2 of 9 |
| S26M S33Y A57R | not detected | 0 of 3 | 3 of 9 |
| S33K S38I R60K | 6.7 µM | 2 of 3 | 6 of 9 |
| A40D Q96C L102G | not detected | 0 of 3 | 1 of 9 |
| K36T N37M E61F | 27 nM | 3 of 3 | 1 of 9 |
| S26Q S58Q R60K | 620 nM | 3 of 3 | 0 of 9 |
| S26D R34F L100T | 160 µM | 1 of 3 | 1 of 9 |
| R34I R60A P101C | 680 nM | 2 of 3 | 4 of 9 |
| L30S Q95T S103I | 71 µM | 2 of 3 | 2 of 9 |
| K24W S58W L100V | not detected | 0 of 3 | 1 of 9 |
| N37E R60P Q95L | 120 µM | 2 of 3 | 2 of 9 |
| S38E L100V P101N | not detected | 0 of 3 | 3 of 9 |
| R34Q A57Q P101C | 2.8 µM | 1 of 3 | 1 of 9 |
| R34K S58R Y97S | 82 nM | 3 of 3 | 2 of 9 |
| L30Y S33A R60F | 70 µM | 1 of 3 | 0 of 9 |
| S28T L30V | 14 nM | 3 of 3 | 1 of 9 |
| L30K N35V S58I | not detected | 0 of 3 | 4 of 9 |
| A57P Y97L L100S | 83 µM | 3 of 3 | 2 of 9 |
| K24Q S25V R99G | 1.3 nM | 3 of 3 | 5 of 9 |
| K36F W56D Y97S | 91 nM | 1 of 3 | 0 of 9 |
| K36V S38V E61T | not detected | 0 of 3 | 1 of 9 |
| S25D V39T Y97N | not detected | 0 of 3 | 0 of 9 |
| K24W S26T L30P | 160 nM | 2 of 3 | 0 of 9 |
| E32T S58Y S62P | 19 µM | 3 of 3 | 6 of 9 |
| K24A S28V K36R | not detected | 0 of 3 | 0 of 9 |
| S33W H98F L102W | 2.4 µM | 3 of 3 | 2 of 9 |
| V39L S62I R99I | 2.1 µM | 3 of 3 | 3 of 9 |
| A40V H98F | 45 µM | 3 of 3 | 3 of 9 |
| N35I Q96N L102Q | not detected | 0 of 3 | 0 of 9 |
| S38G A40W | 15 µM | 2 of 3 | 1 of 9 |
| S28Y V29I E61V | not detected | 0 of 3 | 1 of 9 |
| S38A A40C | 24 nM | 2 of 3 | 0 of 9 |
| K24C S28N E61I | 270 nM | 3 of 3 | 0 of 9 |
| S25I V39W L102I | 100 nM | 3 of 3 | 1 of 9 |
| S33R W56L R99F | 21 µM | 1 of 3 | 4 of 9 |
| S33V S62W R99N | 1.1 µM | 3 of 3 | 2 of 9 |
| N37R R60A | 7.1 µM | 2 of 3 | 1 of 9 |
| Q95Y P101L | not detected | 0 of 3 | 0 of 9 |
| S26E Y31K E32L | 67 nM | 3 of 3 | 1 of 9 |

For reference, 7 entries of the list once more:

| changes | apparent Kd | seen in | signal with controls |
|---|---|---|---|
| K36T N37M E61F | 27 nM | 3 of 3 | 1 of 9 |
| K24A S28V K36R | not detected | 0 of 3 | 0 of 9 |
| S25D V39T Y97N | not detected | 0 of 3 | 0 of 9 |
| N37R R60A | 7.1 µM | 2 of 3 | 1 of 9 |
| S38W L100E | not detected | 0 of 3 | 3 of 9 |
| R34I R60A P101C | 680 nM | 2 of 3 | 4 of 9 |
| S38A A40C | 24 nM | 2 of 3 | 0 of 9 |

Reference: Engelhart et al. 2022, doi:10.1038/s41597-022-01779-4. File: FLAb, binding data.